The term Ki denotes the dissociation constant of the complex between target and ligand, obtained from inhibition or displacement. Low values mean a stronger hold on the target, high ones a looser hold on the target. As a reminder, the IC50 is the concentration needed to halve the response being measured.

Amino acid sequences for entries named in this document (tags omitted).
UniProt Q15910, whole entry: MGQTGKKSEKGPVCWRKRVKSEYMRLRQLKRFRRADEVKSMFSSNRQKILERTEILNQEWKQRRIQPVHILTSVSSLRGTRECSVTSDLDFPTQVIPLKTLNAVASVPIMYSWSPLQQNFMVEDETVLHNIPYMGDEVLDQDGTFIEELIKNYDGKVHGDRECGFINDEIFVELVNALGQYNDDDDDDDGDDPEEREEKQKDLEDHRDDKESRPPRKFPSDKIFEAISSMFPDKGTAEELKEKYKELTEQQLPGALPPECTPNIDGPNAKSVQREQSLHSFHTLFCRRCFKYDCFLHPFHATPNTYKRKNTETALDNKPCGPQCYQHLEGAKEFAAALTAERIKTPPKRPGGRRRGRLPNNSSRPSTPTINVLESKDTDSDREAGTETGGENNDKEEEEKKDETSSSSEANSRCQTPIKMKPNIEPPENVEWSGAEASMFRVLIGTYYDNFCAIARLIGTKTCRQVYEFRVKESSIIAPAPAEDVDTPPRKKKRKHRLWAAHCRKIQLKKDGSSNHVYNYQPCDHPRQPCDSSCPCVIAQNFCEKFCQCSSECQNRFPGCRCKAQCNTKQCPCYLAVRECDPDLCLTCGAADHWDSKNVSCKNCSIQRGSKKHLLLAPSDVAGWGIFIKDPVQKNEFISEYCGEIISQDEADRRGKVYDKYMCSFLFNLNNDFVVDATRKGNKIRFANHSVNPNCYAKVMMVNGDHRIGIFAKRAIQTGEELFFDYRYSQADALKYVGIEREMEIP
UniProt Q15910, whole entry Y641F: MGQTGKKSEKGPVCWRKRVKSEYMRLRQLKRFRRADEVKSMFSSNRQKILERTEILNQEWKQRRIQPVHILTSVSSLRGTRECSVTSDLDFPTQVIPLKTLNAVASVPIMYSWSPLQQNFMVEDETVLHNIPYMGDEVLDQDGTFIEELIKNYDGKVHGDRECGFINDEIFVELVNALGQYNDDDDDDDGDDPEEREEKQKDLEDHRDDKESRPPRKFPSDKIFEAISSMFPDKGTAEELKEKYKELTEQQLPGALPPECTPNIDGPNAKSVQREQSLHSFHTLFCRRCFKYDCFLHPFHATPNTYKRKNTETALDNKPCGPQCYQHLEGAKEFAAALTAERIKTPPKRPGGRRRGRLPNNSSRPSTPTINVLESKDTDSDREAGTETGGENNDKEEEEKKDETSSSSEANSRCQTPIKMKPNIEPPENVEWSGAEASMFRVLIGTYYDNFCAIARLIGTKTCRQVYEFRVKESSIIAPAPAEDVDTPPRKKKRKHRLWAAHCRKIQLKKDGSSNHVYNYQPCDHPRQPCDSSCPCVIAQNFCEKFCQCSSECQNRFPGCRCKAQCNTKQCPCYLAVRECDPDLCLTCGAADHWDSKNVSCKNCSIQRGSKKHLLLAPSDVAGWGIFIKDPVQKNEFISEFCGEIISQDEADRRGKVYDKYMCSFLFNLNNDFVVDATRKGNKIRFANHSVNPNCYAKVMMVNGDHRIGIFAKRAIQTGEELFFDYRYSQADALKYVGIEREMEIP
UniProt Q15910, whole entry Y641N: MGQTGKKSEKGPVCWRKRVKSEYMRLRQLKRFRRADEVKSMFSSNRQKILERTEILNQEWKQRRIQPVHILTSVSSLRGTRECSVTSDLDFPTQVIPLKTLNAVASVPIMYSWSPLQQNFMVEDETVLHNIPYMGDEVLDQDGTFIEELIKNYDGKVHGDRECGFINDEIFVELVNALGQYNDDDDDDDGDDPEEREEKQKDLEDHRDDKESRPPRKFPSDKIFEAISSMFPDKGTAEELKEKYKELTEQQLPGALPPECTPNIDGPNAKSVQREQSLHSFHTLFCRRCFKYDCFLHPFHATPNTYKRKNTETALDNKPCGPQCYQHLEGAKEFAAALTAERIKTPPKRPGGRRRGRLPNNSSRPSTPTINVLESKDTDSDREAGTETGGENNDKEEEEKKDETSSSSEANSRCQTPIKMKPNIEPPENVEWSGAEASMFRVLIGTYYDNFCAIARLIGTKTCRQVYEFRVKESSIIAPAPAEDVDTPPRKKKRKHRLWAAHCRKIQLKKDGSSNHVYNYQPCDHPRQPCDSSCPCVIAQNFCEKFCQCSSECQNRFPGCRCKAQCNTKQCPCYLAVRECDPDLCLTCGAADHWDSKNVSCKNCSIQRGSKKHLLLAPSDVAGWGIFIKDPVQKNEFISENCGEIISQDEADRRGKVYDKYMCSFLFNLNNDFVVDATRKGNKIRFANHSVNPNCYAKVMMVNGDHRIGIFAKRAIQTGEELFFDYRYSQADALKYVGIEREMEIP

Assay [1] addresses T1, Histone-lysine N-methyltransferase EZH2 (Homo sapiens, UniProt Q15910).
Assay [2] addresses Histone-lysine N-methyltransferase EZH2 (Homo sapiens, UniProt Q15910, Y641F).
The test system of another assay is WSUDLCL2. Kind of assay: cells. It is filed as functional, cell-based. Particulars: Homo sapiens.
For assay [3], the target named is Histone-lysine N-methyltransferase EZH2 (Homo sapiens, UniProt Q15910, Y641N).
The target of assay [4] is T2, Histone-lysine N-methyltransferase EZH1 (Homo sapiens, UniProt Q92800).
T2 sequence (Q92800 whole entry): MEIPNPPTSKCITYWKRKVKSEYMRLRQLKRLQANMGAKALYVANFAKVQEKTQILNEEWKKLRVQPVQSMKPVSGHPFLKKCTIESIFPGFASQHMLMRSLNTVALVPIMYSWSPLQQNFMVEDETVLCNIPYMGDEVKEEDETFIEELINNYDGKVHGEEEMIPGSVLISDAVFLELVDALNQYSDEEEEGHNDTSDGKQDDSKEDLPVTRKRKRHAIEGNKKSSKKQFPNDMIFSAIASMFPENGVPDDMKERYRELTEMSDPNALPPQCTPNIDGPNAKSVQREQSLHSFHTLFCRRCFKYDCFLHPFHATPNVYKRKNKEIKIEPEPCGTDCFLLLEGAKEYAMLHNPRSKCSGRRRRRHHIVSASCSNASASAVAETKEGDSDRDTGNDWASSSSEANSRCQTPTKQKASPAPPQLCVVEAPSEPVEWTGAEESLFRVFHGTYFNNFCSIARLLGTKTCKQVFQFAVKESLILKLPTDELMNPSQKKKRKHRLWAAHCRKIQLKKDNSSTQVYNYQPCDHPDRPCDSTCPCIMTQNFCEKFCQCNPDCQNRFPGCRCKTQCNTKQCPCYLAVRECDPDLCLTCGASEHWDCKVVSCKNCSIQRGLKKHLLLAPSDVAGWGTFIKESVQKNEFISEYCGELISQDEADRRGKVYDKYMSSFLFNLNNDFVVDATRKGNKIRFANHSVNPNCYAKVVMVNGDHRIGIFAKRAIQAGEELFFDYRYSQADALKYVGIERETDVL

The next assay concerns Pfeiffer. As to the kind of experiment: cells. Format: functional, cell-based. Particulars: Homo sapiens.
A further assay can be described thus: cells. Format: cell-based. Particulars: Homo sapiens, HCT-116.
The target of assay [5] is T1, Histone-lysine N-methyltransferase EZH2. This is another data set of the same source.

`CCN(c1cc(C#CCN2CCOCC2)cc(C(=O)NCc2c(C)cc(C)[nH]c2=O)c1C)[C@H]1CC[C@H](N(C)CCOC)CC1` gave a Ki in assay [1] of under 3 nM. In addition, the midpoint of inhibition in assay [2], the IC50, lay at 15 nM. On to `CCN(c1cc(C#CC2CCN(C)CC2)cc(C(=O)NCc2c(C)cc(C)[nH]c2=O)c1C)C1CCOCC1`, for which, in the assay with WSUDLCL2, it took 325 nM to reach half-maximal inhibition (IC50). In assay [3], `C=CCC1(S(=O)(=O)n2ccc3c(C(=O)NCc4c(C)cc(C)[nH]c4=O)cc(-c4ccc(N5CCN(C)CC5)nc4)cc32)CC1` returned an IC50 of 870000 nM. Molecule `Cc1cc(C)c(CN2CCc3c(Br)c4c(c(C)c3C2=O)OC(C)([C@H]2CC[C@H](N(C)C)CC2)O4)c(=O)[nH]1` (stereo partly specified) had an IC50 in assay [4] of 7 nM. For `CCN(c1cc(-c2ccc(OCCOC)cc2)cc(C(=O)NCc2c(C)cc(C)[nH]c2=O)c1C)C1CCC(N(C)C)CC1` (stereo unspecified), the IC50 in assay [2] is under 5 nM.

On to `CCN(c1cc(-c2ccc3c(c2)C(N2CCOCC2)CC3)cc(C(=O)NCc2c(OC)cc(C)[nH]c2=O)c1C)C1CCOCC1` (stereo unspecified), for which the values for the half-maximal inhibitory concentration (IC50) in the assay with WSUDLCL2 and in the assay on Pfeiffer were 2.26 nM and 1.03 nM, respectively.

Regarding `CCN(c1cc(-c2ccc(CN3CCN(C)CC3)nc2)cc2c(NCc3c(C)cc(C)[nH]c3=O)nccc12)[C@H]1CC[C@H](N(C)C)CC1`, half-maximal inhibition in the assay with Pfeiffer (IC50) required 383 nM. For `CCN1CCN(c2ccc(-c3cc(C(=O)NCc4c(C)cc(C)[nH]c4=O)c(C)c4c3O[C@](C)(CN3CCOCC3)O4)cn2)CC1`, half-maximal inhibition in “cells” (IC50) was put at 24 nM. In the case of `CCN(c1cc(Cl)cc(C(=O)NCc2c(CCN(C)C)cc3n(c2=O)NCC3)c1C)[C@H]1CC[C@H](N(C)C)CC1`, 750 nM corresponded to half-maximal inhibition in assay [5] (IC50).

These data come from ChEMBL document CHEMBL5120864, “Targeting Enhancer of Zeste Homolog 2 for the Treatment of Hematological Malignancies and Solid Tumors: Candidate Structure-Activity Relationships Insights and Evolution Prospects” (J Med Chem, 2022).
